The record followed here is patent US5736529A, “Use of NAD-related compounds in the treatment of neural trauma to inhibit neurodegeneration” (priority 1996, dated 1998).

Data set [1] has as its system dopaminergic neurons in the midbrain. Put plainly: Apoptosis in MPTP treated mice (In Situ Apoptosis Detection Kit, tyrosine hydroxylase staining). The format is in vivo, mouse (C57BL/6). The following applies: MPTP treated brains.
The subject of data set [2] is DNA in midbrain and striatum of C57BL/6 mice. Put plainly: Fluorimetric assay of DNA fragmentation in MPTP treated mice (Table 7). The format is in vivo, mouse (C57BL/6). Conditions: for DNA damage, STRIATUM: MPTP 25 mg/kg ip twice, mean ± S.D. From the text: A fifth group was the control. Brains were removed and the midbrain and striatum isolated.

As to `CN1CC=C(c2ccccc2)CC1` [MPTP, 1-methyl-4-phenyl-1,2,3,6-tetrahydropyridine], the “tyrosine hydroxylase stained cells” value in data set [1] was “condensed cells with fragmented nuclei can be clearly observed”. Moreover, the “DNA fragmentation in the striatum” value in data set [2] (25 mg/kg MPTP twice, 48 hours) was “not in the striatum”. The entries for the “DNA damage, STRIATUM” value in data set [2] (2 hours) and in data set [2] (48 hours) were 0.9256 ± 0.0593 per gram of tissue and 1.2433 ± 0.2420 per gram of tissue, respectively.
